By IC50 is commonly meant the concentration that inhibits the measured activity by half. A higher IC50 goes with weaker potency in that assay.

Chains of the proteins cited; added tags and fusions are not shown.
UniProt G2LDI3, entry or part of it: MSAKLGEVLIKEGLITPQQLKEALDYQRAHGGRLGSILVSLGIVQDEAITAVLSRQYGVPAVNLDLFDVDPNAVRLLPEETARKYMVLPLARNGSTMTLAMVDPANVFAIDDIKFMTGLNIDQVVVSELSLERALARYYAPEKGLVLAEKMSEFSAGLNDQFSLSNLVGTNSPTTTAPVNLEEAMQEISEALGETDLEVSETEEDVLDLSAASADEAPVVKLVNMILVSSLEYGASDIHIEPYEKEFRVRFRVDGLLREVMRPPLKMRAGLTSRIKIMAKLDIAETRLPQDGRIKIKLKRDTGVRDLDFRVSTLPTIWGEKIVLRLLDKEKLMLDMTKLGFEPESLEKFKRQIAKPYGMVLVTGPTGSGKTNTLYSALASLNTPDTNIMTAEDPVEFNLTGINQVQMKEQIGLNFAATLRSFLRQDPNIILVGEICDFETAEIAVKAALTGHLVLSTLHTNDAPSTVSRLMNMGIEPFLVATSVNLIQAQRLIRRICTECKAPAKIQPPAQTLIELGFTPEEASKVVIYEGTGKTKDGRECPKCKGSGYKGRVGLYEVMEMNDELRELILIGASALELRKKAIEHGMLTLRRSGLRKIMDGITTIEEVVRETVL

This assay deals with T1, PilB (CtPilB), type IV pilus assembly ATPase (Chloracidobacterium thermophilum, UniProt G2LDI3).
T1 construct: gene Cabther_A1696
As to the kind of experiment: biochemical.

`O=c1c(O)c(-c2ccc(O)c(O)c2)oc2cc(O)cc(O)c12` [compound 77, quercetin]: the IC50 stood at 2500 nM.

Values taken from publication PMC8546689, “High-Throughput Screen for Inhibitors of the Type IV Pilus Assembly ATPase PilB” (mSphere, 2021).
